The numbers were not newly measured in PubChem BioAssay AID977611, which cites them from elsewhere.

Common to all, as to assay: PubChem AID 977611
In data set [1] the target is Transporter(F253A mutant). To be noted: PDB protein-ligand complexes, literature Kd; protein: Transporter(F253A mutant); PDB entry 4FXZ.
The target in data set [2] is Transporter. Conditions: PDB protein-ligand complexes, literature Kd, protein: Transporter.
In data set [3] the target is N-terminal domain of RSK2 kinase. To be noted: PDB protein-ligand complexes, literature Kd; protein: N-terminal domain of RSK2 kinase; PDB entry 3UBD.
The target of data set [4] is Acetyl-CoA carboxylase. Conditions: PDB protein-ligand complexes, literature Kd; protein: Acetyl-CoA carboxylase; PDB entry 3TV5.
The target of data set [5] is R7-2 streptavidin. Conditions: PDB protein-ligand complexes, literature Kd; protein: R7-2 streptavidin; PDB entry 3RDQ.
Data set [6] deals with V30M mutant human transthyretin (TTR). Conditions: PDB protein-ligand complexes, literature Kd; protein: V30M mutant human transthyretin (TTR); PDB entry 3NES.
Data set [7] addresses Wild type human transthyretin (TTR). Conditions: PDB protein-ligand complexes, literature Kd; protein: Wild type human transthyretin (TTR); PDB entry 3NEE.
For data set [8], the target named is ORF 17 , KSHV Pr. To be noted: PDB protein-ligand complexes, literature Kd; protein: ORF 17 , KSHV Pr; PDB entry 3NJQ.
The target in data set [9] is Outer membrane protein omp38. Conditions: PDB protein-ligand complexes, literature Kd; protein: Outer membrane protein omp38; PDB entry 3TD4.
The target in data set [10] is Polyamine transport protein. To be noted: PDB protein-ligand complexes, literature Kd; protein: Polyamine transport protein; PDB entry 3TTM.
In data set [11] the target is putrescine-binding protein. To be noted: PDB protein-ligand complexes, literature Kd; protein: putrescine-binding protein; PDB entry 1A99.
Data set [12] addresses Coronatine-insensitive protein 1 with SKP1-like protein 1A (COI1-ASK1). Conditions: PDB protein-ligand complexes, literature Kd; protein: Coronatine-insensitive protein 1 with SKP1-like protein 1A (COI1-ASK1); PDB entry 3OGM.
Data set [13] has as its target 6-phosphofructokinase isozyme 2,Pfk-2. To be noted: PDB protein-ligand complexes, literature Kd; protein: 6-phosphofructokinase isozyme 2,Pfk-2; PDB entry 3N1C.
The target of data set [14] is C-terminal effector-binding domain of CggR. To be noted: PDB protein-ligand complexes, literature Kd, protein: C-terminal effector-binding domain of CggR.
For data set [15], the target named is H-2 class I histocompatibility antigen, K-B alpha chain, H2Kb. Conditions: PDB protein-ligand complexes, literature Kd; protein: H-2 class I histocompatibility antigen, K-B alpha chain, H2Kb; PDB entry 3P9L.
The target in data set [16] is Phosphoethanolamine N-methyltransferase H132A mutant. To be noted: PDB protein-ligand complexes, literature Kd; protein: Phosphoethanolamine N-methyltransferase H132A mutant; PDB entry 3UJC.
For data set [17], the target named is Phosphoethanolamine N-methyltransferase Y19F mutant. To be noted: PDB protein-ligand complexes, literature Kd; protein: Phosphoethanolamine N-methyltransferase Y19F mutant; PDB entry 3UJD.
The target in data set [18] is Phosphoethanolamine N-methyltransferase. To be noted: PDB protein-ligand complexes, literature Kd; protein: Phosphoethanolamine N-methyltransferase; PDB entry 3UJ9.
Data set [19] concerns the target MTA/SAH nucleosidase(Helicobacter pylori MTAN). To be noted: PDB protein-ligand complexes, literature Kd; protein: MTA/SAH nucleosidase(Helicobacter pylori MTAN); PDB entry 3NM6.
In data set [20] the target is SN-GLYCEROL-3-PHOSPHATE-BINDING PERIPLASMIC PROTEIN UGPB. To be noted: PDB protein-ligand complexes, literature Kd; protein: SN-GLYCEROL-3-PHOSPHATE-BINDING PERIPLASMIC PROTEIN UGPB; PDB entry 4AQ4.
Data set [21] addresses RNA polymerase. Conditions: PDB protein-ligand complexes, literature Kd; protein: RNA polymerase; PDB entry 3SFG.
Data set [22] addresses Aplysia californica acetylcholine-binding protein (AChBP). Conditions: PDB protein-ligand complexes, literature Kd; protein: Aplysia californica acetylcholine-binding protein (AChBP); PDB entry 4AFT.
The target in data set [23] is Poly [ADP-ribose] polymerase 14. To be noted: PDB protein-ligand complexes, literature Kd; protein: Poly [ADP-ribose] polymerase 14; PDB entry 4F1Q.
Data set [24] concerns the target fructose 1,6-bisphosphate aldolase. To be noted: PDB protein-ligand complexes, literature Kd; protein: fructose 1,6-bisphosphate aldolase; PDB entry 1ADO.
In data set [25] the target is apoferritin. To be noted: PDB protein-ligand complexes, literature Kd; protein: apoferritin; PDB entry 3U90.
The target of data set [26] is maltoporin. Conditions: PDB protein-ligand complexes, literature Kd; protein: maltoporin; PDB entry 1AF6.
Data set [27] has as its target sucrose-specific porin. Conditions: PDB protein-ligand complexes, literature Kd; protein: sucrose-specific porin; PDB entry 1A0T.
Data set [28] deals with Peptidyl-prolyl cis-trans isomerase NIMA-interacting 1. To be noted: PDB protein-ligand complexes, literature Kd; protein: Peptidyl-prolyl cis-trans isomerase NIMA-interacting 1; PDB entry 3TC5.
The target in data set [29] is Enantio-pyochelin receptor. To be noted: PDB protein-ligand complexes, literature Kd; protein: Enantio-pyochelin receptor; PDB entry 3QLB.
Data set [30] addresses Transthyretin. To be noted: PDB protein-ligand complexes, literature Kd; protein: Transthyretin; PDB entry 3P3R.
In data set [31] the target is Mevalonate diphosphate decarboxylase. To be noted: PDB protein-ligand complexes, literature Kd; protein: Mevalonate diphosphate decarboxylase; PDB entry 3QT7.
The target in data set [32] is Apis mellifera Odorant-Binding Proteins (OBP14). To be noted: PDB protein-ligand complexes, literature Kd; protein: Apis mellifera Odorant-Binding Proteins (OBP14); PDB entry 3S0E.
In data set [33] the target is HTH-type transcriptional regulator qacR, QacR E90Q. Conditions: PDB protein-ligand complexes, literature Kd; protein: HTH-type transcriptional regulator qacR, QacR E90Q; PDB entry 3PM1.
Data set [34] addresses PROBABLE TRANSCRIPTIONAL REGULATORY PROTEIN (PROBABLY DEOR-FAMILY). To be noted: PDB protein-ligand complexes, literature Kd; protein: PROBABLE TRANSCRIPTIONAL REGULATORY PROTEIN (PROBABLY DEOR-FAMILY); PDB entry 3V78.
In data set [35] the target is HIV-1 clade C1086 gp120 core. Conditions: PDB protein-ligand complexes, literature Kd; protein: HIV-1 clade C1086 gp120 core; PDB entry 3TGS.
The target in data set [36] is GLUCOSYLTRANSFERASE
Conditions: PDB protein-ligand complexes, literature Kd; protein: GLUCOSYLTRANSFERASE; PDB entry 2WZF.

For data set [37], the target named is Human O-GlcNAc transferase (OGT). Conditions: PDB protein-ligand complexes, literature Kd; protein: Human O-GlcNAc transferase (OGT); PDB entry 4AY5.
The target of data set [38] is Toxin A. Conditions: PDB protein-ligand complexes, literature Kd; protein: Toxin A; PDB entry 4DMW.
Data set [39] has as its target GTPase KRas, isoform 2B. To be noted: PDB protein-ligand complexes, literature Kd; protein: GTPase KRas, isoform 2B; PDB entry 4DSU.

Broadly, the Kd is the concentration at which binding is half-saturated. `CC(C)C[C@H](N)C(=O)O`: the dissociation constant Kd in data set [1] is 0.0943 µM; in data set [2] (PDB entry 3F3E), 0.02 µM; in data set [2] (PDB entry 3GJD), 0.0468 µM. As to `CC(=O)O[C@@H]1[C@@H](OC(C)=O)[C@@H](O)[C@H](Oc2c(-c3ccc(O)cc3)oc3cc(O)cc(O)c3c2=O)O[C@H]1C`, the Kd in [3] was 2.9 µM. Consider `O=C(c1c2ccccc2cc2ccccc12)N1CCC(N2CCC[C@@H](C(=O)N3CCOCC3)C2)CC1`, for which the equilibrium dissociation constant (Kd) in data set [4] is 4.8 µM. Take `C[C@@H]1NC(=O)N[C@@H]1CCCCCC(=O)O`: in [5], the dissociation constant Kd was 0.00049 µM. With `Cc1cc(OCC(=O)O)cc(C)c1Cc1ccc(O)c(C(C)C)c1`, the dissociation constant Kd in data set [6] is 2.4 µM; in [7], 4.6 µM. `O=C(O)c1ccc(NC(=O)c2cccc(CC3CCCCC3)n2)c(Cc2ccccc2)c1`: the Kd in data set [8] is 13 µM.

In the case of `N[C@H](CCC[C@H](N)C(=O)O)C(=O)O`, in data set [9], the Kd was 2.2 µM.

Regarding `NCCCCN`, the equilibrium dissociation constant (Kd) is 0.003 µM in [10] and 2 µM in data set [11]. As for `CC[C@@H]1C[C@@H]2C(=O)CC[C@@H]2[C@@H](C(=O)N[C@@]2(C(=O)O)C[C@@H]2CC)C1`, in data set [12], the equilibrium dissociation constant (Kd) is 0.048 µM. For the molecule `O=P(O)(O)OC[C@H]1O[C@](O)(CO)[C@@H](O)[C@@H]1O`, the Kd was 6 µM in [13] and 94.3 µM in data set [14] (PDB entry 3BXH). With `CC[C@H](C)[C@H](NC(=O)[C@@H](NC(=O)[C@@H](N)CO)[C@@H](C)CC)C(=O)N[C@@H](CC(N)=O)C(=O)N[C@@H](Cc1ccccc1)C(=O)N[C@@H](CCC(=O)O)C(=O)N[C@@H](CCCCN)C(=O)N[C@@H](CC(C)C)C(=O)O`, the Kd in [15] was 5 µM. Regarding `C[N+](C)(C)CCOP(=O)([O-])O`, the Kd in data set [16] is 26 µM; in [17], 20.2 µM; in [18], 23.4 µM.

Take `NC(CO)(CO)CO`: the Kd in data set [19] was 45000 µM. For the molecule `O=P(O)(O)OC[C@H](O)CO`, the Kd in data set [20] was 0.68 µM. Regarding `O=c1ccn([C@@H]2O[C@H](CO)[C@@H](O)[C@H]2O)c(=S)[nH]1`, in data set [21], the equilibrium dissociation constant (Kd) is 0.865 µM. Turning to `c1cnc2cc3c(cc2n1)[C@@H]1CNC[C@H]3C1`, in data set [22], the Kd was 0.342 µM. Consider `NC(=O)c1cccc(NC(=O)CCC(=O)O)c1`, for which, in [23], the Kd was 11.2 µM. Turning to `O=C(CO)COP(=O)(O)O`, the equilibrium dissociation constant (Kd) in [14] (PDB entry 3BXE) was 3.34 µM; in data set [24] it was 1 µM.

Regarding `CCCCCCCCCCCCOS(=O)(=O)O`, the Kd in [25] was 24 µM. For the molecule `OC[C@H]1O[C@@](CO)(O[C@H]2O[C@H](CO)[C@@H](O)[C@H](O)[C@H]2O)[C@@H](O)[C@@H]1O`, the Kd in data set [26] was 15000 µM; in [27], 50000 µM.

As for `C[C@@H]1C[C@H]2[C@@H]3CCC4=CC(=O)C=C[C@]4(C)[C@@]3(F)[C@@H](O)C[C@]2(C)[C@@]1(O)C(=O)COP(=O)(O)O`, in data set [28], the Kd was 6.8 µM. In the case of `O=C([O-])CC(O)(CC(=O)[O-])C(=O)[O-].[CH2-][NH+]1[C@@H](C(=O)[O-])CS[C@H]1[C@@H]1CSC(c2ccccc2O)=N1.[Fe]` (stereo partly specified), the Kd in [29] was 0.0037 µM.

For `O=C(c1cc(O)c(O)c([N+](=O)[O-])c1)c1ccccc1F`, the Kd in data set [30] is 0.0561 µM. Consider `O=C(O)C[C@@](O)(CF)CCOP(=O)(O)OP(=O)(O)O`, for which, in data set [31], the Kd is 0.049 µM. Regarding `C=CCc1ccc(O)c(OC)c1`, the Kd in [32] was 0.28 µM. Take `CCN1c2cc(N)ccc2-c2ccc(N)cc2C1c1ccccc1` (stereo unspecified): the Kd in data set [33] was 1.18 µM; in data set [34], 2.9 µM.

`CC1(C)CC(NC(=O)C(=O)Nc2ccc(Cl)cc2)CC(C)(C)N1`: the equilibrium dissociation constant (Kd) in data set [35] is 4.1 µM.

For the molecule `O=c1ccn([C@@H]2O[C@H](COP(=O)(O)OP(=O)(O)O)[C@@H](O)[C@H]2O)c(=O)[nH]1`, the dissociation constant Kd in data set [36] was 0.1 µM; in [37], 0.54 µM; in data set [38], 11.4 µM. Turning to `c1ccc2[nH]cnc2c1`, the Kd in data set [39] is 1500 µM.
